These results are taken from paper PMC2783186 (Journal of medicinal chemistry, 2009).

This assay deals with T1, TNAP (Homo sapiens, UniProt P05186).
T1 sequence (P05186 18-501 limits assumed): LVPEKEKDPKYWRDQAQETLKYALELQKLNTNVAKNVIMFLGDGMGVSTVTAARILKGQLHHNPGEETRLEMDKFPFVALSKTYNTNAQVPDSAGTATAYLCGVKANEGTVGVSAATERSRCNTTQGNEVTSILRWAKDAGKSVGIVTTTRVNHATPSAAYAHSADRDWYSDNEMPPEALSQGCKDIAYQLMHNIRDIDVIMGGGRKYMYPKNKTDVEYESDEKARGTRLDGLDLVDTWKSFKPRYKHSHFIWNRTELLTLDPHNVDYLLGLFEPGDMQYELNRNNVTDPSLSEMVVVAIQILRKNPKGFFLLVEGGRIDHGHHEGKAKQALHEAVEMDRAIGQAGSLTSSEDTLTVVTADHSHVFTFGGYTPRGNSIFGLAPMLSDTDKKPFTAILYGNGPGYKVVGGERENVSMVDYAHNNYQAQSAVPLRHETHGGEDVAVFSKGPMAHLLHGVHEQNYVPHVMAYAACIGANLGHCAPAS
Description: TNAP mechanism of action and reversibility studies. The note with it: Lineweaver-Burk plot. Format: biochemical.

In the case of `COc1ccc(OC)c(S(=O)(=O)Nc2cnc3ccccc3c2)c1` [Compound 1, 2,5-Dimethoxy-N-(quinolin-3-yl)benzenesulfonamide], the “Mode of inhibition versus phosphate-acceptor substrate DEA” value is “non-competitive inhibition” and the “Mode of inhibition versus phosphate-donor substrate CDP-star” value is “uncompetitive”.
